Measured values as given in patent US6750247B2, “Sponge-derived terpenoids and methods of use” (Galileo Laboratories, Inc., priority 2001, dated 2004).

How the values were obtained:
[1] = system: primary hippocampal neuronal cells; assay: Hippocampal anoxia-reoxygenation cell death assay; format: cell-based, mice; conditions: at dose for max. activity; 5 hr hypoxia, 20-24 hr reoxygenation, live neurons by Cell Tracker Green
Experimental: Neurobasal medium (Life Technologies, Rockville, Md.) with 1× B27 supplement (Life Technologies), […], 25 μM L-glutaxnic acid, and 1× Penicillin/Streptomycin was prepared fresh prior to use. Hank's Basic Salt Solution (HBSS, Ca/Mg-free) was prepared by preparing 1× Hanks CMF (Gibco) supplemented with HEPES (10 mM, pH 7.3), sodium bicarbonate (0.35%), 1× Penicillin/Streptomycin, and 1 mM pyruvate. Poly-D-lysine (Sigma, St. Louis, Mo.) was prepared by filtering a 50 μg/ml solution through 0.2 μm filter tubes. Sigmacote (Sigma, St. Louis, Mo.). Plastic Culture Flasks (T75 cm^2) or 12-well cell culture plates were then treated with Poly-D-Lysine (Sigma, St. Louis, Mo.).
Pregnant female mice (E18-E19) were euthanized with CO2 prior to removal of the uterus, which was then placed in a sterile plastic petri dish. The embryos were removed from the sac, and the embryonic brains removed and immersed in cold (4° C.) Hepes Buffered Salt Solution (HBSS; Ca/Mg free; Life Technologies) in a small petri dish. Hippocampi were then removed from the brains under a dissecting microscope and were placed on a paraffin-covered dish. […]
The density of cells was determined on a small aliquot of cells using standard counting procedures and correcting for cell viability by trypan blue stain exclusion. […]

neonatal cardiomyocytes = assay: Myocyte calcium-contractility assay (cardiomyocyte beating anoxia assay); format: cell-based, rat; conditions: 16 hr anoxia, 2 hr reoxygenation
Experimental: 10× Heart Dissection Solution (HDS) contains the following components (g/l) in tissue culture grade water: NaCl, 68; HEPES, 47.6; NaH2PO4, 2; Glucose, 10; KCl, 4; MgSO4, 1, pH adjusted to 7.4. Prior to filter sterilization of diluted (1× HDS) solution, 10 mg phenol red was added to each 500 milliliters of medium. Transferrin and Bovine Insulin were obtained from Life Technologies, and resuspended at a concentration of 4 mg/ml in tissue culture grade water. DMEM-F12- DMEM/F12, powder, 1:1 containing glutamine and pyridoxine hydrochloride was purchased from Life Technologies. To one liter equivalent of the powder was added 2.43 g of sodium bicarbonate and 10 ml of 100× Penicillin/Streptomycin in 950 ml of tissue culture grade water with stirring. The pH was adjusted to 7.2 with 1M HCl and volume was adjusted to 1 liter. The solution was filter sterilized then 2.5 ml of 4 mg/ml Transferrin, 250 μl 4 mg/ml Insulin and 30.7 mg of bromodeoxyuridine were added. DMEM-F12 was also prepared with 4% FBS for pre-coating the tissue culture plates and initial suspension of the cardiomyocyte pellet. Collagenase solution-49 mg of collagenase was resuspended in 120 ml 1× HDS.
Tissue culture plasticware was pre-coated with DMEM-F12-4% FBS by incubating 50 μl per well of a 96-well plate. Two-day old rat pups were removed from their mothers and placed in a sterile container. Pups were dipped quickly into 70% alcohol, then decapitated and the body was placed in an empty sterile tissue culture dish. An incision was made starting at the neck and progressing towards the belly, cutting through the sternum. The heart was removed and placed in a tissue culture dishes containing 1× HDS. The atria were trimmed, and the remaining ventricles were placed into a separate tissue culture dish containing 1× HDS, where they were sectioned into 3-4 pieces each. Ventricles were then transferred to a sterile 250 ml glass flask and the 1× HDS was removed. Twenty milliliters of pre-warmed collagenase solution were added to the ventricles, followed by incubation at 37° C. with shaking. […]

Substance: 2-[5-hydroxy-4-methyl-6-(2,5,5,8a-tetramethyl-1,4,4a,5,6,7,8,8a-octahydro-naphthalen-1-yl)-hexyl]-2-methyl-2H-chromenyl sodium sulfate [Hipposulfate D (9)]
- Percent Activity [1]: No activity at 10 μg/mL
- Dose for Max. Activity (neonatal cardiomyocytes): 75 µg/mL
- cell viability (neonatal cardiomyocytes): increased cell viability
- Percent Activity (neonatal cardiomyocytes; at dose for max. activity, Fluo-4 fluorescence): 70%
